# Results reported in patent US11591319B2, “Small molecule inducers of autophagy” (Board of Regents, The University of Texas System, priority 2018, dated 2023).
# Amino acid sequences for entries named in this document (tags omitted). Residues count along the entry.
# UniProt P10415, 1-218: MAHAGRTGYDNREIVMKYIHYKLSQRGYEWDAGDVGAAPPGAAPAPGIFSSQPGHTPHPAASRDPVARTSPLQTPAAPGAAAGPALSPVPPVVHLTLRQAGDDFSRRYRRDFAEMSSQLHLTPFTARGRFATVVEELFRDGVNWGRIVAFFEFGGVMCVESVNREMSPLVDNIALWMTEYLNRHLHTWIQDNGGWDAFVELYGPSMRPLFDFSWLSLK
# Target: Beclin 1/Bcl-2 interaction (Homo sapiens (Human), UniProt P10415)
# Test: Beclin 1/Bcl-2 AlphaLISA assay (dose-response)
# Type: binding
# Description: We also developed a high-throughput Beclin 1/Bcl-2 AlphaLISA assay to directly measure the in vitro interaction between Beclin 1 and Bcl-2. AlphaLISA is a bead-based proximity assay that is capable of measuring protein-protein interaction in homogeneous solution.^41 Oxygen singlet molecules are generated by Alpha donor beads upon irradiation at 680 nm and travel to acceptor beads in proximity. […] Thus, a measurable Alpha luminescence signal requires chemical energy transfer between the donor and acceptor beads, and a pair of interacting molecules immobilized on the beads stabilizes bead association to produce measurable Alpha signals.
# We used purified recombinant Beclin 1 and Bcl-2 proteins for AlphaLISA, which were optimized for enhanced solubility and expression. Human Beclin 1 was expressed as a fusion protein with StrepII-SUMO at the N-terminus, and three residues on the aromatic finger of Beclin 1 were mutated (F359D/F360D/W361D) to improve solubility and protein stability.^42 These mutations are in the BARA domain, which is far from the BH3 motif recognized by Bcl-2. […] The purpose of a normalization control is to eliminate inner filter (false-positive) hits that reduce luminescence signal by interfering with the AlphaLISA assay in ways that are unrelated to the Beclin 1/Bcl-2 interaction. […]
row,IC50,SMILES
1,18.2 µM,Cc1cccc(C(=O)N2N=C(c3ccc(NS(C)(=O)=O)cc3)CC2c2ccco2)c1 (centres unmarked) [lqr-8-182]
2,2.5 µM,CC(=O)c1ccc(C(=O)N2N=C(c3ccc(NC(=O)OC(C)(C)C)cc3)CC2c2ccccc2)cc1 (centres unmarked) [lqr-9-136]
